In US20260382772A1, “KETO-AMIDE-BASED FIBROBLAST ACTIVATION PROTEIN-TARGETED LIGAND LINKED TO AN IMAGING OR THERAPEUTIC AGENT, COMPOSITIONS, AND METHODS OF USE” (published 2026):

System: MDA-MB-231 tumor bearing mice
Assay: Toxicology (H&E histopathology) in MDA-MB-231 tumor-bearing mice
Details: single dose 37 MBq
Excerpt: Mice were weighed every other day during radiotherapy as a gross evaluation of health. Tissue sections from organs of interest (n=1-8 per organ per mouse) were preserved and examined blindly for lesions by a board-certified veterinary pathologist.
To assess toxicology in the MDA-MB-231 tumor-bearing mice treated with Lu-Conjugate 24′, 4 μm sections of mouse heart, liver, and kidney tissue samples were taken following radiotherapy treatments of a single dose of [^177Lu] Lu-FAP8-PEG3-IP-DOTA (Lu-Conjugate 24′) and 37 MBq radiotherapy in athymic nu/nu mice bearing MDA-MB-231 tumors. 1.0 mCi was used for the treatment. The tissue samples were stained with H&E and representative photomicrographs were taken (FIG. 48; Table 14).

`COc1ccc(CNC(=O)C(=O)[C@@H]2CC(F)(F)CN2C(=O)CNC(=O)c2ccnc3ccc(OCC(=O)NCCOCCOCCOCCNC(=O)[C@H](CCCCNC(=O)CCCc4ccc(I)cc4)NC(=O)CN4CCN(CC(=O)O)CCN(CC(=O)O)CCN(CC(=O)O)CC4)cc23)cc1OC.[Lu+3]` was tested, and the Heart histopathology (individual treated mice M6-M10) was “NDL”, the Kidneys histopathology (individual treated mice M6-M10) was “NDL” and the Lungs histopathology (individual treated mice M6-M10) was “NDL”. The “mice with histopathologic lesions consistent with necrosis and active inflammation” value (mice #8 and #9, liver) was 2 of the 5.
